# Source: patent US6518290B1, “Substituted oxazoles and thiazoles derivatives as HPPAr alpha activators” (priority 1999, dated 2003)
# Target: T1, human PPAR alpha (Homo sapiens, UniProt Q07869)
# T1 construct: expressed in transfected cells; host or cells: CV-1 cells
# T1 sequence (Q07869 239-466 limits assumed): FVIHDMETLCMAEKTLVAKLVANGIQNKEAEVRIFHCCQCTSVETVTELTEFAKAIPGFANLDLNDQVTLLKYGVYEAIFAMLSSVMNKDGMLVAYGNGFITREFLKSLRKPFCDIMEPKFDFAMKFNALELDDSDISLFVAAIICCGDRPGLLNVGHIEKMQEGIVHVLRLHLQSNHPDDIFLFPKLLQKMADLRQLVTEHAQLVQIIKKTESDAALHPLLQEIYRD
# Test: PPAR transient transfection (transactivation) assay in CV-1 cells, hPPAR alpha
# Format: cell-based
# Details: PPAR LBD-GAL4 chimera, SPAP reporter, 24 h with compound, read-out: human αEC50
# Source text: Compounds were screened for functional potency in transient transfection assays in CV-1 cells for their ability to activate the PPAR subtypes (transactivation assay). A previously established chimeric receptor system was utilized to allow comparison of the relative transcriptional activity of the receptor subtypes on the same target gene and to prevent endogenous receptor activation from complicating the interpretation of results. See, for example, Lehmann, J. M.; Moore, L. B.; Smith-Oliver, T. A.; Wilkison, W. O.; Willson, T. M.; Kliewer, S. A., An antidiabetic thiazolidinedione is a high affinity ligand for peroxisome proliferator-activated receptor γ (PPARγ), J. Biol. Chem., 1995, 270, 12953-6. The ligand binding domains for murine and human PPAR alpha, PPAR gamma, and PPAR delta were each fused to the yeast transcription factor GAL4 DNA binding domain. CV-1 cells were transiently transfected with expression vectors for the respective PPAR chimera along with a reporter construct containing five copies of the GAL4 DNA binding site driving expression of secreted placental alkaline phosphatase (SPAP) and β-galactosidase. After 16 h, the medium was exchanged to DME medium supplemented with 10% delipidated fetal calf serum and the test compound at the appropriate concentration. […]
smiles,measurement,value
"Cc1nc(-c2ccc(C(F)(F)F)cc2)sc1C(=O)NCc1ccc(OC(C)(C)C(=O)O)cc1 [Example 2, 2-Methyl-2-[4-{[(4-methyl-2-[4-trifluoromethylphenyl]-thiazol-5-ylcarbonyl)amino]methyl}phenoxy]propionic Acid]",EC50,6 nM
